This passage reports IC50, inhibition of TGF-β signaling in Mv1Lu luciferase reporter cells results from patent US20130089499A1 (NATIONAL RESEARCH COUNCIL OF CANADA, published 2013).

Sequences of proteins named here, by UniProt entry; tags and fusion partners are left off. Residues count along the entry.
UniProt P01137, 279-390 limits assumed: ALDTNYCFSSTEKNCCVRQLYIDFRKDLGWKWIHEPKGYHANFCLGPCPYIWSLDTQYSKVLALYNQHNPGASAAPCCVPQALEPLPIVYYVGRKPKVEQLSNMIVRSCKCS

The assay deals with TGF-β1 (UniProt P01137). As to the kind of experiment: cell-based or functional assay.

“TβRII-Fc R&D (from UniProt P37173 23-166) (Fc fusion)”: the IC50, inhibition of TGF-β signaling in Mv1Lu luciferase reporter cells came to 0.1 nM.
